In this assay the target is mutant α-Gal A in N215S lymphocytes (Homo sapiens, UniProt P06280, N215S). The settings on record: 0-50 μM for 4 days, then chase 0, 2 or 4 days without compound; FIG. 6.

Sequences of proteins named here, by UniProt entry; tags and fusion partners are left off. Residues count along the entry.
UniProt P06280, 32-429 N215S: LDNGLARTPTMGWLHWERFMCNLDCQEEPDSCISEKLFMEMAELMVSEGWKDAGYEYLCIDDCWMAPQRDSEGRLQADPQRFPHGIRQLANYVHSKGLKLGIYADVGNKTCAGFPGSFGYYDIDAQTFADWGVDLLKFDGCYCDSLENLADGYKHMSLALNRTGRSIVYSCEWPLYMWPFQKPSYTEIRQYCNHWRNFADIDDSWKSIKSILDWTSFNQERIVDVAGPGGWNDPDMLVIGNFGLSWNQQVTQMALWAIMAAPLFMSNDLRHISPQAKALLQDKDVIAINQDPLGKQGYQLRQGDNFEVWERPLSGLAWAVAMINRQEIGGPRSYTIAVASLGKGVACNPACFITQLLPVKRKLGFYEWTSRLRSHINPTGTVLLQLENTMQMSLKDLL

Take `OC[C@H]1NC[C@H](O)[C@@H](O)[C@H]1O` [DGJ]: the “durability of chaperoning: enzyme activity after removal of compound” value is listed as “dramatically decreased after 4 days”.

The record behind these values is patent US10995067B2, “Treatment of Fabry disease” (Academia Sinica, priority 2016, dated 2021).
